Results as given in US20030108924A1.

Biological target: KCNQ1 cardiac potassium channel (KvLQT1), full-length (UniProt P51787)
Experiment: cell-based or functional assay

increase of current after the 10th pulse of a depolarizing pulse train: 3.3 fold
time constant for activation at +40 mV (first time constant): 220 ms
time constant for activation at +40 mV (second time constant): 1430 ms
time constant of deactivation (tail currents at -50 mV after activation at +60 mV): 469 ms
voltage-dependence of activation, V1/2: 13.4 mV
Substance: wild-type KCNE1 (cardiac potassium channel minK subunit polypeptide, D85 form)
